Data on 6 compounds can be found in article PMC6424980, “Distinct G protein-coupled receptor phosphorylation motifs modulate arrestin affinity and activation and global conformation” (Nature Communications, 2019).

SMILES strings stand for the structures. “Also recorded” adds a separate entry of the source.

Assay [1] relates to arrestin-1 mutants I72B and F197NBD with nonphosphorylated light-activated rhodopsin in ROS membranes. The assay can be described thus: Ternary complex formation (site-directed fluorescence and centrifugal pull-down). The note with it: 10 µM rhodopsin in ROS, 1 µM arrestin-1 I72B or F197NBD, 100 µM peptide, pH 7. Format: biochemical, bovine. From the text: Recombinant bovine arrestin-1 cloned into the pET15b vector was expressed and purified as described. The basic construct was a modified wild-type sequence that contained no native cysteines (C63A, C128S and C143A) nor tryptophans (W194F). Single cysteine residues were introduced by PCR at sites 72 or 197 as previously described. The I72C mutant was labeled with monobromobimane (Thermo Fisher) and is referred to as I72B. The F197C mutant was labeled with N,N′-Dimethyl-N-(Iodoacetyl)-N′-(7-Nitrobenz-2-Oxa-1,3-Diazol-4-yl)Ethylenediamine (IANBD amide, Thermo Fisher) and is referred to as F197NBD. Labeling was carried out as previously described[43],[61]. Both labeled mutants were assessed to be functionally similar to wild-type arrestin-1 using the Extra Meta II assay, which determines the ability of arrestin-1 to bind and stabilize the active Meta II form of rhodopsin[64].
Under dim-red light, samples were prepared that contained nonphosphorylated rhodopsin (10 µM) in ROS membranes, 1 µM arrestin-1 I72B or F197NBD, ±100 µM peptide in 50 mM HEPES, 130 mM NaCl, pH 7 (150 or 200 µl sample volume). One hundred microliters of the sample was used for fluorescence measurements, and the remainder was used for the centrifugal pull-down assay (50 µl per assay). Steady-state fluorescence measurements were performed using a SPEX Fluorolog (1680) instrument in front-face mode. Bimane fluorescence was recorded using an excitation wavelength of 400 nm and emission 424–600 nm, and NBD fluorescence was recorded using an excitation wavelength of 500 nm and emission 524–660 (2 nm step size, 0.5 s integration per point). Excitation slits were narrowed to 0.1−0.2 nm to minimize light-activation of rhodopsin, and emission slits were set at 4 nm. Pull-down analysis was performed by centrifuging samples at 16,000 × g for 10 min at 20 °C. Selected samples were light activated (>495 nm) for 15 s prior to centrifugation (appr. 60 s delay time). Following centrifugation, the supernatants were removed, and the pellets were solubilized in loading buffer containing 2% SDS and subjected to SDS PAGE. Bands were visualized using Coomassie Brilliant Blue.

For a further assay, the system named is arrestin-3. The assay can be described thus: Fluorescence anisotropy binding of fluorescein-labelled peptides to arrestin-3. More on the design: species or system human. From the text:
(§1) Synthesized cDNAs of bovine arrestin-1, human arrestin-2 and human arrestin-3 were ordered from Genewiz, amplified by PCR and cloned (Supplementary Information Table 5) into the pET-15b vector (Novagen), using the Gibson Assembly protocol. The constructs contained an N-terminal hexa histidine tag linked by a linker that contained a Tobacco Etch Virus cleavage site (TEV; […]). PCR was used to introduce the monomerizing arrestin-1 mutations (F85A, F197A)[58]. Note that this mutant was employed for fluorescence anisotropy, trypsin digestion, and NMR experiments. Wild-type arrestin-2 and -3 were used for fluorescence anisotropy and trypsin digestion experiments. […] The arrestin-1 in this construct had the wild-type sequence. Note that this construct differs slightly from that previously published[59],[60] and was optimized for purification. We verified the functionality of this fusion construct using the standard centrifugal pull-down assay using phosphorylated rhodopsin in native ROS membranes.
0.1–0.2 mg of lyophilized peptide was dissolved in 50 µl of 50 mM phosphate-buffered saline (PBS) buffer at pH 7.0, and then two molar equivalents of fluorescein-5-maleimide dye stock dissolved in dimethylsulfoxid was added. The reaction was carried out at RT in the dark. After 1 h the reaction was topped up with 1 ml of ice-cold 100% acetone and stored until the next day at −20 °C. The precipitated peptide was centrifuged (13,000 × g) for 10 min. The labeled and precipitated peptide was sedimented, and the supernatant was removed. […] It was dissolved in 50 µl of 20 mM Bis-Tris propane pH 7.0 and 150 mM NaCl and its concentration was determined by absorbance. […]
An 11-step serial dilution series of arrestin in 20 mM Bis-Tris propane pH 7.0, 150 mM NaCl, 8 mM 2‑mercaptoethanol, 2% (w/w) BSA, 0.02% (v/v) Tween-20 was prepared and transferred to a black high-bottom 384-well plate (Greiner). […] The reading was performed by default settings of PHERAstar plate-reader (BMG Labtech) and excitation‑/emission-wavelengths of 485 nm (12 nm bandpass)/520 nm (30 nm bandpass) were used. […]

The next assay relates to arrestin-2. The assay can be described thus: Limited trypsin digestion of arrestin-2 in presence of peptide. Format: biochemical, human. Conditions: arrestin:peptide 1:1.2, 35 °C, SDS PAGE.
Description: as §1
Arrestin (60 µg) was mixed at a 1 to 1.2 molar ratio with peptide and preincubated at RT for 5 min before 1 μl of 0.15 mg/ml trypsin stock was added. The enzymatic digestion was carried out at 35 °C (20 mM Bis-Tris propane pH 7.0, 150 mM NaCl, 10 mM 2‑Mercaptoethanol and 2 mM EDTA). At certain time points (5, 15, 30, 60, 90 min), 5 μl aliquots were quenched with heat incubation in the presence of 20 μl SDS loading buffer (95 °C, 5 min) and then subjected to SDS PAGE. Bands were visualized with InstantBlue (Expedeon).

Consider `CC(C)[C@H](NC(=O)[C@H](CCC(N)=O)NC(=O)[C@H](COP(=O)(O)O)NC(=O)[C@@H](NC(=O)[C@H](CCC(=O)O)NC(=O)[C@@H](NC(=O)[C@H](CCCCN)NC(=O)[C@H](CO)NC(=O)[C@@H](NC(=O)[C@@H](NC(=O)[C@@H](NC(=O)[C@H](COP(=O)(O)O)NC(=O)[C@H](C)NC(=O)[C@H](CCC(=O)O)NC(=O)[C@H](CC(=O)O)NC(=O)[C@H](CC(=O)O)NC(=O)[C@@H](N)CS)[C@@H](C)O)[C@@H](C)O)C(C)C)[C@@H](C)OP(=O)(O)O)[C@@H](C)O)C(=O)N[C@@H](C)C(=O)N1CCC[C@H]1C(=O)N[C@@H](C)C(=O)O` [3Pa], for which, in assay [1], the “ternary complex formation (arrestin-1, nonphosphorylated rhodopsin, peptide)” value (“ternary complex formation” below) was “Efficient ternary complex formation; also recorded: robust ternary complex formation”.

Consider `CC(C)[C@H](NC(=O)[C@H](CCC(N)=O)NC(=O)[C@H](COP(=O)(O)O)NC(=O)[C@@H](NC(=O)[C@H](CCC(=O)O)NC(=O)[C@@H](NC(=O)[C@H](CCCCN)NC(=O)[C@H](CO)NC(=O)[C@@H](NC(=O)[C@@H](NC(=O)[C@@H](NC(=O)[C@H](CO)NC(=O)[C@H](C)NC(=O)[C@H](CCC(=O)O)NC(=O)[C@H](CC(=O)O)NC(=O)[C@H](CC(=O)O)NC(=O)[C@@H](N)CS)[C@@H](C)OP(=O)(O)O)[C@@H](C)O)C(C)C)[C@@H](C)OP(=O)(O)O)[C@@H](C)O)C(=O)N[C@@H](C)C(=O)N1CCC[C@H]1C(=O)N[C@@H](C)C(=O)O` [3Pb], for which the “ternary complex formation” value in assay [1] is “Efficient ternary complex formation; also recorded: robust ternary complex formation”.

Consider `CC(C)[C@H](NC(=O)[C@H](CCC(N)=O)NC(=O)[C@H](COP(=O)(O)O)NC(=O)[C@@H](NC(=O)[C@H](CCC(=O)O)NC(=O)[C@@H](NC(=O)[C@H](CCCCN)NC(=O)[C@H](COP(=O)(O)O)NC(=O)[C@@H](NC(=O)[C@@H](NC(=O)[C@@H](NC(=O)[C@H](CO)NC(=O)[C@H](C)NC(=O)[C@H](CCC(=O)O)NC(=O)[C@H](CC(=O)O)NC(=O)[C@H](CC(=O)O)NC(=O)[C@@H](N)CS)[C@@H](C)O)[C@@H](C)O)C(C)C)[C@@H](C)OP(=O)(O)O)[C@@H](C)O)C(=O)N[C@@H](C)C(=O)N1CCC[C@H]1C(=O)N[C@@H](C)C(=O)O` [3Pc], for which the “ternary complex formation” value in assay [1] is “Efficient ternary complex formation; also recorded: robust ternary complex formation”.

For `CC(C)[C@H](NC(=O)[C@H](CCC(N)=O)NC(=O)[C@H](COP(=O)(O)O)NC(=O)[C@@H](NC(=O)[C@H](CCC(=O)O)NC(=O)[C@@H](NC(=O)[C@H](CCCCN)NC(=O)[C@H](CO)NC(=O)[C@@H](NC(=O)[C@@H](NC(=O)[C@@H](NC(=O)[C@H](CO)NC(=O)[C@H](C)NC(=O)[C@H](CCC(=O)O)NC(=O)[C@H](CC(=O)O)NC(=O)[C@H](CC(=O)O)NC(=O)[C@@H](N)CS)[C@@H](C)O)[C@@H](C)OP(=O)(O)O)C(C)C)[C@@H](C)OP(=O)(O)O)[C@@H](C)O)C(=O)N[C@@H](C)C(=O)N1CCC[C@H]1C(=O)N[C@@H](C)C(=O)O` [3Pd], the “ternary complex formation” value in assay [1] is “Efficient ternary complex formation; also recorded: robust ternary complex formation”.

For the compound `CC(C)[C@H](NC(=O)[C@H](CCC(N)=O)NC(=O)[C@H](COP(=O)(O)O)NC(=O)[C@@H](NC(=O)[C@H](CCC(=O)O)NC(=O)[C@@H](NC(=O)[C@H](CCCCN)NC(=O)[C@H](CO)NC(=O)[C@@H](NC(=O)[C@@H](NC(=O)[C@@H](NC(=O)[C@H](COP(=O)(O)O)NC(=O)[C@H](C)NC(=O)[C@H](CCC(=O)O)NC(=O)[C@H](CC(=O)O)NC(=O)[C@H](CC(=O)O)NC(=O)[C@@H](N)CS)[C@@H](C)O)[C@@H](C)OP(=O)(O)O)C(C)C)[C@@H](C)OP(=O)(O)O)[C@@H](C)O)C(=O)N[C@@H](C)C(=O)N1CCC[C@H]1C(=O)N[C@@H](C)C(=O)O` [4P], the “binding to arrestin-3 (in words)” value with arrestin-3 is reported as “higher affinity”. Moreover, in the assay on arrestin-2, the “rate of trypsin digestion of arrestin-2” value is listed as “accelerated”. Besides, the “ternary complex formation” value in assay [1] is “Efficient ternary complex formation”.

For the compound `CC(C)[C@H](NC(=O)[C@H](CCC(N)=O)NC(=O)[C@H](COP(=O)(O)O)NC(=O)[C@@H](NC(=O)[C@H](CCC(=O)O)NC(=O)[C@@H](NC(=O)[C@H](CCCCN)NC(=O)[C@H](COP(=O)(O)O)NC(=O)[C@@H](NC(=O)[C@@H](NC(=O)[C@@H](NC(=O)[C@H](CO)NC(=O)[C@H](C)NC(=O)[C@H](CCC(=O)O)NC(=O)[C@H](CC(=O)O)NC(=O)[C@H](CC(=O)O)NC(=O)[C@@H](N)CS)[C@@H](C)OP(=O)(O)O)[C@@H](C)OP(=O)(O)O)C(C)C)[C@@H](C)OP(=O)(O)O)[C@@H](C)OP(=O)(O)O)C(=O)N[C@@H](C)C(=O)N1CCC[C@H]1C(=O)N[C@@H](C)C(=O)O` [6P], the “binding to arrestin-3 (in words)” value in the assay with arrestin-3 is given as “higher affinity”. In the assay with arrestin-2, the “rate of trypsin digestion of arrestin-2” value is “accelerated”. For the same compound, the “ternary complex formation” value in assay [1] is recorded as “Efficient ternary complex formation”.
